Results as given in patent US20110312984A1, “STAT3 INHIBITORS” (priority 2008, published 2011).

Tested on: SUM159PT and HS578T cells
Assay: Mammosphere formation (MSFE) assay in vitro

IC50 (read-out: Mammosphere ~IC50, μM***, compound at 1, 10 or 100 μM, incubated 3 d, spheres counted on day 3): 3 µM
SMILES: O=S(=O)(Nc1cc(Sc2nc[nH]n2)c(O)c2ccccc12)c1ccc(Br)cc1
decreasing MSFE compared with parent Cpd188: 1 log greater activity | self-renewal as measured by MSFE (initial studies): affects self-renewal
